Results published in PubChem BioAssay AID1918990.
This is a selection; strong and weak results do not stand in their true shares. The source made the active and inactive calls.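 The calls were made as follows: active = replicate mean overnight rise in green fluorescent reporter signal, 3 or more SD over negative controls; inactive = the rest.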

Assay: fixK promoter GFP reporter activation – B. multivorans, primary screen (AID 1918990)
Conditions: 18 h, stronger effect = higher value

SMILES | z-score
CN(CCCl)CCCl | inactive: -5.2
